In US12311136B2, “Using alternating electric fields to increase permeability of the blood brain barrier” (Novocure GmbH, priority 2020, dated 2025):

Test system: artificial BBB (murine brain capillary endothelial cells, cerebEND)
Conditions: 100 kHz alternating electric fields for 72 hours; 4 kDa FITC-dextrans

Substance: fluoresceine isothiocyanate coupled to dextran [FITC-dextrans]
- permeability of the artificial BBB to FITC-dextrans: 110 % of the control
